Values quoted from earlier work, collected in US7943806B2.

In the case of bromine, the water solubility is given as 3.5 grams/100 ml.
